In article PMC3799459:

Substrate: C[S+](CC[C@H](N)C(=O)[O-])C[C@H]1O[C@@H](n2cnc3c(N)ncnc32)[C@H](O)[C@@H]1O
Test: Km determination of DNMT1 substrates
Assay type: biochemical, human
Conditions: other: SAM 0.25-20 µM, 1.0 µM hemimethylated Dup_1

B1: DNMT1 (Homo sapiens) (protein)
chain: MPARTAPARVPTLAVPAISLPDDVRRRLKDLERDSLTEKECVKEKLNLLHEFLQTEIKNQLCDLETKLRKEELSEEGYLAKVKSLLNKDLSLENGAHAYNREVNGRLENGNQARSEARRVGMADANSPPKPLSKPRTPRRSKSDGEAKPEPSPSPRITRKSTRQTTITSHFAKGPAKRKPQEESERAKSDESIKEEDKDQDEKRRRVTSRERVARPLPAEEPERAKSGTRTEKEEERDEKEEKRLRSQTKEPTPKQKLKEEPDREARAGVQADEDEDGDEKDEKKHRSQPKDLAAKRRPEEKEPEKVNPQISDEKDEDEKEEKRRKTTPKEPTEKKMARAKTVMNSKTHPPKCIQCGQYLDDPDLKYGQHPPDAVDEPQMLTNEKLSIFDANESGFESYEALPQHKLTCFSVYCKHGHLCPIDTGLIEKNIELFFSGSAKPIYDDDPSLEGGVNGKNLGPINEWWITGFDGGEKALIGFSTSFAEYILMDPSPEYAPIFGLMQEKIYISKIVVEFLQSNSDSTYEDLINKIETTVPPSGLNLNRFTEDSLLRHAQFVVEQVESYDEAGDSDEQPIFLTPCMRDLIKLAGVTLGQRRAQARRQTIRHSTREKDRGPTKATTTKLVYQIFDTFFAEQIEKDDREDKENAFKRRRCGVCEVCQQPECGKCKACKDMVKFGGSGRSKQACQERRCPNMAMKEADDDEEVDDNIPEMPSPKKMHQGKKKKQNKNRISWVGEAVKTDGKKSYYKKVCIDAETLEVGDCVSVIPDDSSKPLYLARVTALWEDSSNGQMFHAHWFCAGTDTVLGATSDPLELFLVDECEDMQLSYIHSKVKVIYKAPSENWAMEGGMDPESLLEGDDGKTYFYQLWYDQDYARFESPPKTQPTEDNKFKFCVSCARLAEMRQKEIPRVLEQLEDLDSRVLYYSATKNGILYRVGDGVYLPPEAFTFNIKLSSPVKRPRKEPVDEDLYPEHYRKYSDYIKGSNLDAPEPYRIGRIKEIFCPKKSNGRPNETDIKIRVNKFYRPENTHKSTPASYHADINLLYWSDEEAVVDFKAVQGRCTVEYGEDLPECVQVYSMGGPNRFYFLEAYNAKSKSFEDPPNHARSPGNKGKGKGKGKGKPKSQACEPSEPEIEIKLPKLRTLDVFSGCGGLSEGFHQAGISDTLWAIEMWDPAAQAFRLNNPGSTVFTEDCNILLKLVMAGETTNSRGQRLPQKGDVEMLCGGPPCQGFSGMNRFNSRTYSKFKNSLVVSFLSYCDYYRPRFFLLENVRNFVSFKRSMVLKLTLRCLVRMGYQCTFGVLQAGQYGVAQTRRRAIILAAAPGEKLPLFPEPLHVFAPRACQLSVVVDDKKFVSNITRLSSGPFRTITVRDTMSDLPEVRNGASALEISYNGEPQSWFQRQLRGAQYQPILRDHICKDMSALVAARMRHIPLAPGSDWRDLPNIEVRLSDGTMARKLRYTHHDRKNGRSSSGALRGVCSCVEAGKACDPAARQFNTLIPWCLPHTGNRHNHWAGLYGRLEWDGFFSTTVTNPEPMGKQGRVLHPEQHRVVSVRECARSQGFPDTYRLFGNILDKHRQVGNAVPPPLAKAIGLEIKLCMLAKARESASAKIKEEEAAKD
  Km: 4.4 ± 0.5 µM
